Assays:
Aβ fibrils = Aβ fibrils (Homo sapiens, UniProt P05067); conditions: read-out: affinity constant (Kd) of ThioT for Aβ fibrils; 1 μM fibrils, 2 h at 37° C.
tau fibrils = tau fibrils (Homo sapiens, UniProt P10636); conditions: read-out: affinity constant (Kd) of ThioT for tau fibrils; 1 μM fibrils, 2 h at 37° C.

The chains behind the UniProt entries cited, without tags or fusion partners. Residues count along the entry.
UniProt P05067, 672-713 limits assumed: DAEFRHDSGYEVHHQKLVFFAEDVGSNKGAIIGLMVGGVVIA
UniProt P10636, 560-692: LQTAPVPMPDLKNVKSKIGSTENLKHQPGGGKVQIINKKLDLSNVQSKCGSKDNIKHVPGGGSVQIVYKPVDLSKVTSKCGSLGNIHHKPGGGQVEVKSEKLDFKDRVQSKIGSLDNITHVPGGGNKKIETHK

Cc1ccc2c(c1)sc(-c1ccc(N(C)C)cc1)[n+]2C [ThT, Thioflavin T]
Kd (Aβ fibrils): 32 nM | Kd (tau fibrils): 2700 nM

Reference: patent US10300155B2, “Alpha-synuclein ligands” (Washington University, priority 2015, dated 2019)
